Experimental data from paper PMC11827123 (Journal of medicinal chemistry, 2023).

System: MOLT4 cells
Assay: Quantitative MS degradation proteomics in MOLT4 cells
Conditions: 6 h treatment

For `COc1cc(C2CCN(CC3CN(c4ccc5c(c4)C(=O)N(C4CCC(=O)NC4=O)C5=O)C3)CC2)c(C)cc1Nc1ncc(Cl)c(Nc2ccccc2S(=O)(=O)C(C)C)n1` (stereo not shown) [CPD-1224, 5-{3-[(4-{4-[(5-Chloro-4-{[2-(propane-2-sulfonyl)phenyl]amino}pyrimidin-2-yl)amino]-5-methoxy-2-methylphenyl}piperidin-1-yl)methyl]azetidin-1-yl}−2-(2,6-dioxopiperidin-3-yl)-2,3-dihydro-1H-isoindole-1,3-dione], the “proteins degraded to any significant extent” value was “degraded only a small number of proteins”.
